From patent US20100029554A1, “Composition and Methods for Treatment of Congestive Heart Failure” (Amylin Pharmaceuticals, Inc., priority 2006, published 2010)

Biological target: T1, GLP-1 receptor, endogenous in RINm5f cells (rat (RIN-m5F are called rat pancreas insulinoma cells)), P32301
T1 chain: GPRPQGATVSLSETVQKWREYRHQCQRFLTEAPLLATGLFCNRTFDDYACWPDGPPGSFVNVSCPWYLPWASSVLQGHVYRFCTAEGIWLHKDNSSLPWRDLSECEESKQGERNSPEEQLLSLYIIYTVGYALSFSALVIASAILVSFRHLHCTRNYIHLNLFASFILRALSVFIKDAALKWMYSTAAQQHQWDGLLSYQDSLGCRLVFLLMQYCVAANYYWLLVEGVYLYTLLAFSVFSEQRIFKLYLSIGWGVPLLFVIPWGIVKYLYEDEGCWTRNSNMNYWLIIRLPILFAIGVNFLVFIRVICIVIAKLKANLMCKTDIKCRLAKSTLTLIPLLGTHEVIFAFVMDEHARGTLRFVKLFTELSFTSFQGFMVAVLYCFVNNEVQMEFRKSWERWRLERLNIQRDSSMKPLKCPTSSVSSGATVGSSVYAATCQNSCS
Test: 125I-GLP-1 displacement, RINm5f membranes

HAEGTFTSDVSSYLEGQAAKEFIAWLVKGRGGG (modifications not checked) [Cmpd 4844, GLP-1-(7-37)-GG(S)-2,6-diamino-1-(thiazolidin-3-y1)hexan-1-one amide]
IC50: 0.087 nM

HAEGTFTSDVSSYLEGQAAKEFIAWLVKGRGGG (modifications not checked) [Cmpd 4845, GLP-1-(7-37)-GG-(S)-2,6-diamino-1-(thiazolidin-2-cyano-3-y1)hexan-1-one amide]
IC50: 0.1 nM
